# B1: Optineurin (Homo sapiens), Q96CV9 (parent)
# chain: MSHQPLSCLTEKEDSPSESTGNGPPHLAHPNLDTFTPEELLQQMKELLTENHQLKEAMKLNNQAMKGRFEELSAWTEKQKEERQFFEIQSKEAKERLMALSHENEKLKEELGKLKGKSERSSEDPTDDSRLPRAEAEQEKDQLRTQVVRLQAEKADLLGIVSELQLKLNSSGSSEDSFVEIRMAEGEAEGSVKEIKHSPGPTRTVSTGTALSKYRSRSADGAKNYFEHEELTVSQLLLCLREGNQKVERLEVALKEAKERVSDFEKKTSNRSEIETQTEGSTEKENDEEKGPETVGSEVEALNLQVTSLFKELQEAHTKLSEAELMKKRLQEKCQALERKNSAIPSELNEKQELVYTNKKLELQVESMLSEIKMEQAKTEDEKSKLTVLQMTHNKLLQEHNNALKTIEELTRKESEKVDRAVLKELSEKLELAEKALASKQLQMDEMKQTIAKQEEDLETMTILRAQMEVYCSDFHAERAAREKIHEEKEQLALQLAVLLKENDAFEDGGRQSLMEMQSRHGARTSDSDQQAYLVQRGAEDRDWRQQRNIPIHSCPKCGEVLPDIDTLQIHVMDCII
# partner: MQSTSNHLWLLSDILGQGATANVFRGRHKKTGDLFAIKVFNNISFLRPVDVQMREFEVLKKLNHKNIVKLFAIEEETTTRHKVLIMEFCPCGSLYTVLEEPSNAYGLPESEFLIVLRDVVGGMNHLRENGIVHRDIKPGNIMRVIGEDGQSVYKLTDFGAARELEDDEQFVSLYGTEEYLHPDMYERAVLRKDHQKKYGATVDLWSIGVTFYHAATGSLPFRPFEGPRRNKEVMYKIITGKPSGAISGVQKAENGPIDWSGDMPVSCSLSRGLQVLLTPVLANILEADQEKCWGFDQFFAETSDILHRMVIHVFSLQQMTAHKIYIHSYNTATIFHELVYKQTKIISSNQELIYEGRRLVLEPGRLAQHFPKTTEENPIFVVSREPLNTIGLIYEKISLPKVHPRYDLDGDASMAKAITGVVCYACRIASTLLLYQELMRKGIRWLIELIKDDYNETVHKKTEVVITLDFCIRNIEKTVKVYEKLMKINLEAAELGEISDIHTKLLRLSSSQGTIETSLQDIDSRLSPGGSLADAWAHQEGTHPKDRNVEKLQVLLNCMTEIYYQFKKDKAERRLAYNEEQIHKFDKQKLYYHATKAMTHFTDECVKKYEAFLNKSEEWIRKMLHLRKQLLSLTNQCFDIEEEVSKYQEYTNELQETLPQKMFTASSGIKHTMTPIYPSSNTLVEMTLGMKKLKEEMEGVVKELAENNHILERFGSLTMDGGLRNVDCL
# Variants of: B1
# Conditions: with tbk1_human TBK1, Q9UHD2
row,effect of a mutation on the interaction,Variant
1,disrupting interaction,M98K

# Variants of: B1
# Conditions: with tbk1_human TBK1, Q9UHD2
# Remark: another data set of the same source
row,effect of a mutation on the interaction,Variant
1,increasing interaction,E50K
